The test system of experiment [1] is CHO. Briefly: Selectivity ratio of TSHR (unknown origin) to human FSH receptor expressed in CHO cells. Format: cell-based.
For experiment [2], the system named is CHO. Briefly: Selectivity ratio of LHR (unknown origin) to human FSH receptor expressed in CHO cells. The format is cell-based.

In the case of `Cc1ccccc1N1CCN(c2ccc(C(=O)NCCCc3nn[nH]n3)cc2NC(=O)c2coc(C3CC3)n2)CC1`, the Selectivity ratio in experiment [1] and in experiment [2] was more than 1000 each time.

As to `Cc1ccccc1N1CCN(c2ccc(C(=O)N[C@@H]3CCC[C@@H](O)[C@H]3O)cc2NC(=O)c2coc(C3CC3)n2)CC1`, the Selectivity ratio in experiment [1] and in experiment [2] was more than 1000 in each case.

(Values after ChEMBL document CHEMBL3259738, “Discovery of substituted benzamides as follicle stimulating hormone receptor allosteric modulators” (Bioorg Med Chem Lett, 2014).)
